Experimental data published in article PMC12567096, “An Efficacy- and In Vivo Exposure-Oriented Integrated Study to Investigate the Effective Components of Qishen Granule” (Pharmaceuticals, 2025).

Assay: Pharmacokinetic study in rats after oral administration of QSG

SMILES: O=C(/C=C/c1ccc(O)c(O)c1)O[C@@H]1C[C@](O)(C(=O)O)C[C@@H](O)[C@H]1O [Chlorogenic acid]
- AUC(0-inf) (Sprague Dawley, rat, plasma, po, 7 g/kg, AUC0→∞, Table S12, rats, oral QSG): 176 ng·h/mL

SMILES: O=C(/C=C/c1ccc(O)c(O)c1)O[C@@H]1C[C@@](O)(C(=O)O)C[C@@H](O)[C@@H]1O [Neochlorogenic acid]
- AUCi (exposure (AUC0→∞) of the component in rats after oral QSG, as used for ECI): 175.7
- AUC0→∞ (rat plasma, single oral 7 g/kg QSG, n = 6): 175.7 ± 70.81 ng·h/mL
